The record followed here is US10899758B2, “Inhibitors of the menin-MLL interaction” (Vitae Pharmaceuticals, LLC, priority 2016, dated 2021).

Amino acid sequences for entries named in this document (tags omitted). A change or cut given only in a name is not applied to a line headed by its entry. Residues count along the entry.
UniProt O00255, 1-459 limits assumed, stated change not applied: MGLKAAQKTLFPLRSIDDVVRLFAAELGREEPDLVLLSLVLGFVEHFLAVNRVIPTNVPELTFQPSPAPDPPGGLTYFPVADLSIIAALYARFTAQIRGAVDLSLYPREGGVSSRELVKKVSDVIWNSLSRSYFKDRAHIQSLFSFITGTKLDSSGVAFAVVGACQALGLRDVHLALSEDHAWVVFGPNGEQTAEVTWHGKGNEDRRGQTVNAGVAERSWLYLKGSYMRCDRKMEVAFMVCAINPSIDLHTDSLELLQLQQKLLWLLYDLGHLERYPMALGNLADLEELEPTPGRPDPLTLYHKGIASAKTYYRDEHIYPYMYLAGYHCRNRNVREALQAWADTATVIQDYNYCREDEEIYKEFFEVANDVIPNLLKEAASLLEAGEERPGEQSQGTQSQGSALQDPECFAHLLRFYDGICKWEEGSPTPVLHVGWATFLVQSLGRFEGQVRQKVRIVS

The target of experiment [1] is menin/MLL binding (biotinylated wild-type or mutated menin and MLL-AF9 fusion protein) (Homo sapiens, UniProt O00255). Nature of the experiment: Assay 1 (Binding Assay): AlphaLISA menin/MLL binding. As to conditions: read-out: Assay 1 (IC50, menin/MLL binding), 5 nM biotinylated menin, MLL-AF9-FLAG lysate. The method, then:
Potencies of inhibitor compounds against menin/MLL binding were assessed by AlphaLISA assay using biotinylated (1) wild-type menin or (2) mutated menin (described in Nature (2012) Vol. 482, pp. 542-548) and MLL-AF9 fusion protein bearing a FLAG epitope at its C-terminus. Menin proteins were expressed in E. coli and covalently modified with biotin using EZ-Link™ Sulfo-NHS-Biotin (ThermoFisher Cat. No. 21217) according to manufacturer's protocol. MLL1-1,396 fused to AF91-92 and the C-terminal FLAG peptide was expressed in HEK293 cells and used as a lysate cleared at 21,000×g for 10 min.
Compounds (2 μL of solutions in DMSO) were dispensed in white 96-well half-area plates (Corning Cat. No. 3693) and incubated for 30 min at RT with 5 nM biotinylated menin and appropriate amount of MLL-AF9-FLAG lysate in 40 μL of 50 mM Tris-HCl buffer pH 7.4 containing 5% (v/v) DMSO, 50 mM NaCl, 0.01% (w/v) bovine serum albumin (BSA) and 1 mM DTT. To this incubation mixture, 40 μl of AlphaLISA anti-FLAG acceptor (PerkinElmer Cat. No. AL112C) and streptavidin donor (PerkinElmer Cat. No. 6760002) beads (10 μg/mL each) was added and incubation continued at RT for 60 min. Alpha (amplified luminescent proximity homogeneous assay) signal was measured on an Envision multi-label plate reader at the end of the incubation. All steps were conducted under dim fluorescent light. […]
In general terms: In Alpha technology, singlet oxygen from a donor bead excites a nearby acceptor bead.

Experiment [2] deals with human acute monocytic leukemia cell line MV-4-11. Kind of experiment: Assay 2 (Cell Proliferation Assay), ATP quantitation (CellTiter-Glo). The experiment is classed as cell-based. As to conditions: read-out: Assay 2 (EC50, inhibition of cell proliferation); MV-4-11 cells, 72 h. How it is done:
Potencies of inhibitor compounds against cell proliferation was assessed against the human acute monocytic leukemia cell line MV-4-11 (ATCC® CRL-9591™) based on ATP quantitation. MV-4-11 cells or toxicity control HL-60 cells (ATCC® CCL-240™) were incubated in 96-well tissue culture plates (1.67×10^4 cells in 200 μL culture media containing 10% FBS per well) with or without test compound for 72 h at 37° C., 5% CO2. After incubation, each well was mixed by pipetting and 95 μL from each well was transferred to a well in 96-well black OptiPlate® plates (PerkinElmer). An equal volume of CellTiter-Glo® Luminescent Cell Viability Assay reagent (Promega) was added to each well, followed by mixing for 5 min on an orbital plate shaker. Luminescence was measured on a Wallac EnVision 2104 Multilabel Reader (PerkinElmer) to quantitate ATP. Percent inhibition of cell proliferation by test compounds was calculated based on uninhibited cell growth (DMSO) versus cells treated with a potent menin inhibitor at a concentration yielding at least 100×LD50.

Some results are limits rather than exact numbers.

For `CC(C)N(C)C(=O)c1cc(F)ccc1-n1cc(C2CC3CN(C[C@H]4CC[C@H](NS(C)(=O)=O)CC4)CC3C2)c2ccncc21` (stereo partly drawn), the IC50 in experiment [1] was below 100 nM.
Regarding `CC(C)N(C)C(=O)c1cc(F)ccc1-n1cc(C2CCC(N3CCC(O)C3)CC2)c2ccncc21` (stereo not drawn), the IC50 in experiment [1] was below 100 nM. In addition, the EC50 in experiment [2] was in the range of 100 to 1000 nM.
